Laboratory results taken from patent publication US20150031714A1, “METHODS AND COMPOSITIONS FOR PREVENTION OF ALLERGIC REACTION” (Baylor College of Medicine, priority 2013, published 2015).

Sequences of proteins named here, by UniProt entry; tags and fusion partners are left off.
UniProt P40763, whole entry: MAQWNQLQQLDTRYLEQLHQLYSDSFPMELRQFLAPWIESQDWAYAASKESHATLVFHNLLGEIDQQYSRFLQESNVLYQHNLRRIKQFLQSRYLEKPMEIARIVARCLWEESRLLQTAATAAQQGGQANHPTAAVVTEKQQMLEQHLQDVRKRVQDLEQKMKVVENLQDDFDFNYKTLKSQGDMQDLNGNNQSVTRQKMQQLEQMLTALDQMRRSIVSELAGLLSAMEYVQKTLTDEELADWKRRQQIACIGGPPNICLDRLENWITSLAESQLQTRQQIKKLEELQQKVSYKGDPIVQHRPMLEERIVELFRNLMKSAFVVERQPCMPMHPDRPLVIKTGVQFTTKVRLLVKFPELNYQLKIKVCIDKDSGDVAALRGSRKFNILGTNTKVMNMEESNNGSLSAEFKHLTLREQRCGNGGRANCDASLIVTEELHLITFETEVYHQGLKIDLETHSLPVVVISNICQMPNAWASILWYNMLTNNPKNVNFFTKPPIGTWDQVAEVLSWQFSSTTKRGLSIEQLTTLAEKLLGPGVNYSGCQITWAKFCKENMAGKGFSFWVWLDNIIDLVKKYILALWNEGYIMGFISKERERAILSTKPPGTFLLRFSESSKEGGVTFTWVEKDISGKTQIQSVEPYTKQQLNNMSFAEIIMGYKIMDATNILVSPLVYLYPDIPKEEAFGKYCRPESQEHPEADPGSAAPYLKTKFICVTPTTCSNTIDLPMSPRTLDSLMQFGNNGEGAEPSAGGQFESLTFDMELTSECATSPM

What was measured:
[1] = biological target: recombinant Stat3 binding to immobilized EGFR Y1068 phosphododecapeptide (Homo sapiens, UniProt P40763); assay: Stat3 SH2/pY-peptide binding assay (SPR, BIAcore)
[2] = test system: MEF/GFP-Stat3α cells; assay: High-throughput fluorescence microscopy (HTFM) cytoplasmic-to-nuclear translocation of GFP-Stat3α; assay type: cell-based, murine; settings: read-out: HTFM IC50; Table 5; mean ± SD
Protocol: Coverslips were examined by confocal fluorescent microscopy using filters to detect GFP (column one), DAPI (column two) or both (merge; column three). In panel B, MEF-GFP-Stat3 cells were grown in 96-well plates with optical glass bottoms and pretreated with the indicated compound at the indicated concentrations in quadruplicate for 1 hour then stimulated with IL-6 (200 ng/ml) and IL-6sR (250 ng/ml) for 30 minutes. Cells were fixed and the plates were examined by high-throughput microscopy to determine the fluorescence intensity in the nucleus (FLIN) and the % ΔFLINMax was calculated as described in Example 1. Data shown are mean±SD and are representative of 2 or more studies. […]
Confocal and high-throughput fluorescence microscopy. Confocal and highthroughput fluorescence microscopy (HTFM) of MEF/GFP-Stat3α cells were performed as described (Huang et al., 2007). Briefly, for confocal fluorescence microscopy, cells were grown in 6-well plates containing a cover slip. […] Plates were analyzed by automated HTFM using the Cell Lab IC Image Cytometer (IC100) platform and CytoshopVersion 2.1 analysis software (Beckman Coulter). Nuclear translocation is quantified by using the fraction localized in the nucleus (FLIN) measurement (Sharp et al., 2006). […]
EXP IIB. High throughput fluorescence microscopy (HTFM), cytoplasm-to-nucleus translocation inhibition assays. […]

[3] = test system: SUM159PT and HS578T cells; assay: Mammosphere formation (MSFE); assay type: cell-based
[4] = test system: human leukemic cell line; assay: Apoptosis of human leukemic (AML) cell line

SPR IC50 compared with parent Cpd188 ([1]; 2nd generation probes): one log lower
IC50 ([1]; read-out: SPR IC50, Table 5, mean ± SD): 2000 nM
IC50 [2]: 49 µM
IC50 ([3]; read-out: Mammosphere ~ IC50, SUM159PT and HS578T cells, compound at 1, 10 or 100 μM, 3 d, spheres counted on day 3): 3000 nM
SMILES: O=S(=O)(Nc1cc(Sc2nc[nH]n2)c(O)c2ccccc12)c1ccc(Br)cc1
activity in decreasing MSFE compared with parent Cpd188 [3]: 1 log
activity in inducing human leukemic cell line apoptosis compared with parent Cpd188 [4]: a log greater activity
